These results are taken from patent US9663498B2 (priority 2013, dated 2017).

The nature of the data set: in vitro. The note with it: human, microsomes, pH 7.4.

Take `COc1ccc(S(=O)(=O)n2cc(C)c3ccc(Br)cc32)cc1N1CCNCC1` [Example 68, 6-bromo-1-((4-methoxy-3-(piperazin-1-yl)phenyl)sulfonyl)-3-methyl-1H-indole]: the CLint scaled (as a rule, the capacity of the preparation to metabolise the compound, expressed as a volume cleared per time) came to 25 mL/min/kg.
